Literature values in patent US8889627B2 (Teva Pharmaceutical Industries, Ltd., priority 2011, dated 2014).

Protein sequences, listed by entry. Tags and fused reporters are not part of them.
UniProt P21453, whole entry, species assumed: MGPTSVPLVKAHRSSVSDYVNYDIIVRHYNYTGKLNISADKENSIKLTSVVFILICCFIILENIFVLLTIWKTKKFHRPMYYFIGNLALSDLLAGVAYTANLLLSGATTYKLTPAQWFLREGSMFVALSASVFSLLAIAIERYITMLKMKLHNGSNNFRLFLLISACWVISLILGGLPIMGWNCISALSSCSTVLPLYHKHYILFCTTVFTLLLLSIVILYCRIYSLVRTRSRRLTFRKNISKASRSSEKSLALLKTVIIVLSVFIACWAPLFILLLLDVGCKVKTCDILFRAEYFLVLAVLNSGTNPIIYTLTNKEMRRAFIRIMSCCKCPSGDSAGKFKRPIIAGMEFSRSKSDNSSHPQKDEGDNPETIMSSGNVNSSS
UniProt Q99500, whole entry, species assumed: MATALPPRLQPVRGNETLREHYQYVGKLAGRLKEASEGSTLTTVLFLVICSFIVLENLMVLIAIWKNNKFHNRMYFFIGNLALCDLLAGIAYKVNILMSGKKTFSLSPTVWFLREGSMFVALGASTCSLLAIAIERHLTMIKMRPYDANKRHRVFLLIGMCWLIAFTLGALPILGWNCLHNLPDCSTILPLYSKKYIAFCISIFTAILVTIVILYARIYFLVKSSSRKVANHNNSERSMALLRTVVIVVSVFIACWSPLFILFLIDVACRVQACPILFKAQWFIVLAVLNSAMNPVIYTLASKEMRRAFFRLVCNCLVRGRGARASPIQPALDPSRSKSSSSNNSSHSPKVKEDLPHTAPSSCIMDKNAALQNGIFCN

What was measured:
S1PR-1 = S1PR-1 (Homo sapiens, UniProt P21453); conditions: cited from earlier work
S1PR3 = S1PR3 (Homo sapiens, UniProt Q99500); conditions: cited from earlier work

Compound: CCCCCCCCc1ccc(CCC(N)(CO)COP(=O)(O)O)cc1 (centres unmarked) [Fingolimod-phosphate]
- binding affinity (in words) (S1PR-1): high affinity
- binding affinity (in words) (S1PR3): high affinity
